This note sets out measurements from EP4831293A1, “BIOSYNTHETIC GENE CLUSTER FOR POLYENE MACROLIDE NATURAL PRODUCT MANDIMYCIN, AND NATURAL PRODUCT AND USE THEREOF” (dated 2026).

Series [1] can be described thus: Water solubility, saturated solution in Tris-HCl buffer, UV quantification. How it is done:
Amphotericin B (1.2 mg/mL) and mandimycin purified in Example 3 (12 mg/mL) were separately dissolved in methanol to prepare stock solutions of amphotericin B (1.2 mg/mL) and mandimycin (12 mg/mL), respectively. A 100 µL aliquot of each of the resulting stock solutions was pre-frozen using liquid nitrogen, and then lyophilized in a freeze dryer for 24 h. Subsequently, 50 µL (for amphotericin B) or 2 µL (for mandimycin) of 10 mM Tris-HCl buffer (pH = 7.4) was added to the freeze-dried samples, and the mixtures were vortexed for 15 min to obtain saturated solutions. The mixtures were centrifuged at 12,000 rpm for 3 min, and the resulting supernatants were diluted with Tris-HCl buffer (10-fold dilution for amphotericin B and 1,000-fold dilution for mandimycin). A 10 µL aliquot was injected, and concentrations of the compounds in solution were determined by measuring the UV absorption spectra using a Shimadzu PDA detector spectrophotometer. Specifically, amphotericin B and mandimycin were accurately weighed and dissolved in DMSO to prepare 2 mg/mL stock solutions. The characteristic heptaene UV absorption peak of amphotericin B at its maximum absorption wavelength of 384 nm was used for quantification based on peak area. The characteristic pentaene UV absorption peak of mandimycin at its maximum absorption wavelength of 334 nm was used for quantification based on peak area.

The next series concerns blood cells. Briefly: Hemolytic activity. The note with it: 12.5 µM, 37°C, 3 h, sheep blood cells.
Series [2] in a line: Isothermal titration calorimetry (ITC), phospholipids as a group. As to conditions: 25°C, 5.0 mM HEPES pH 7.4. (In general: Isothermal titration calorimetry measures the heat released or taken up as one component is titrated into another.)
Series [3] in a line: In vivo nephrotoxicity evaluation (biomarkers, histopathology). As to conditions: mice, s.c. 1, 5, 10 or 20 mg/kg once daily.
The nature of series [4]: Isothermal titration calorimetry (ITC). The note with it: ergosterol, 25°C, 5.0 mM HEPES pH 7.4.

On to amphotericin B, for which the “Solubility (10 mM Tris-HCl, pH7.4)” value in series [1] is 0.83 (µg/mL). In the series with blood cells, the hemolytic activity result is listed as “severe hemolysis”. The “binding to phospholipid components (ITC)” value in series [2] is recorded as “did not bind”. Besides, the “nephrotoxicity-related indicators (KIM-1, TIMP-1, NGAL, OPN)” value in series [3] is “markedly increased”. In addition, the Kd in series [4] was found to be 26.1 µM.
Consider nystatin, for which the “binding to phospholipid components (ITC)” value in series [2] is listed as “did not bind”. The substance further showed a Kd in series [4] of 24.9 µM.

Usually Kd stands for a measure of binding affinity in units of concentration. High values mean weaker binding, low ones tighter binding.
